Experimental data taken from article PMC12328794.

By UniProt entry, the sequences of proteins in these tests, tags left out. Where a name states a change or a piece, a line headed by the entry shows the natural chain unless it says otherwise.
UniProt Q9Y3D6: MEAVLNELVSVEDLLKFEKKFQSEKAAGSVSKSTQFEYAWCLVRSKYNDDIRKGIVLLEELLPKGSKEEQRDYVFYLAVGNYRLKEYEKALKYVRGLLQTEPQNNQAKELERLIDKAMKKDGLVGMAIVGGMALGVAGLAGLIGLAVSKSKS

Molecular target: FLAG-Fis1 full-length (human) (UniProt Q9Y3D6)
Test: co-IP; HEK293FT cells co-transfected; RIPA lysate; anti-FLAG M2 magnetic beads, FLAG-Fis1 as bait; wash 50 mM Tris-HCl, 300 mM NaCl, pH 7.4; eluted with 3× FLAG peptide; anti-HA blot

## HA-Bap31 C-terminal region truncated (ΔC) (domain or fragment)
  reduction of co-precipitation against the WT construct: 50%
